A short description of this data set: in vivo. The settings on record: rat.

In the case of `CC(C)n1nc(-c2cccc(Cl)c2Cl)c(N)nc1=N` [Example 4, 5(3)-Amino-6-(2,3-dichlorophenyl)-2,3(2,5)-dihydro-3(5)-imino-2-isopropyl-1,2,4-triazine], the LD50 was 8.34 mg/kg (iv) and 25.5 mg/kg (sc).

Source of the values: US4649139A, “1,2,4-triazines” (Burroughs Wellcome Co., priority 1983, dated 1987).
